Most compounds without a hit are left out; they make up all but 1.6% or so of the library.
CAL PDZ FP-1 – CAL PDZ (human) peptide binding inhibition | purified CAL PDZ, TMR-peptide fluorescence polarization, 1 h | 0.92% of 300,000 active | Q9HD26 | inhibition, % at 24.9 µM | AID 602252;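 active = mean inhibition of at least 30% with at least half of replicates also reaching 30%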;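 also: 0% = DMSO neutral control and 100% = excess unlabeled competitor peptide PRC23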
UUG fidelity – modulators of start codon recognition fidelity in yeast; S. cerevisiae UUG-firefly luciferase reporter, luminescence/redox ratio; activity score, % at 18.7 µM; hit rate 0.13% among 350,000; AID 602363;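 active = replicate mean at a twofold rise or more, about +100% in these data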;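 note: firefly luciferase made from a UUG start codon reports start codon fidelity; reporter light over untreated wells divided by growth signal over untreated wells; some hits fall short of that in this replicate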
Vif inh – blocks HIV Vif function | HEK293T cells, Vif self-association by quenched fluorescence, imaging, 24 h | inhibition, % at 7.49 µM | 0.35% of 340,000 active; in the data active = inhibition above about 50%, passing the limit was not always enough
PglD DTNB – inhibitors of Campylobacter jejuni PglD acetyltransferase. purified PglD enzyme, DTNB colorimetric CoA detection. inhibition, % at 12.5 µM. 0.098% of 360,000 active. AID 602405; in the data active = inhibition above about 16%, passing the limit was not always enough
ARNT-TACC3 inh – disrupts binding between human ARNT and TACC3 | inhibition, % at 9.99 µM | Q9Y6A5 | AlphaScreen His-ARNT PAS-B/GST-TACC3 binding, luminescence; TACC3 fragment carries E629A point mutation | 0.66% of 390,000 active;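 active = mean inhibition of replicates at least 50% and at least half of replicates each reaching 50%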;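 also: 0% = complete ARNT plus TACC3 wells and 100% = ARNT alone without TACC3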
CAL PDZ FP-2 – human CAL PDZ-peptide interaction inhibition | Q9HD26 | purified CAL PDZ, TMR-peptide fluorescence polarization, 1 h | inhibition, % at 20 µM | 0.02% of 330,000 active;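 active = highest replicate inhibition of at least 40%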;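 also: plate controls were DMSO neutral control wells for no effect and unlabeled competitor peptide control wells for full effect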
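Material: tagged CAL PDZ domain; buffer or medium: 25 mM sodium phosphate pH 7.4, 150 mM NaCl, TCEP, IgG, Thesit; compound dosing: single point, 20 µM; schedule: 1 h incubation at room temperature before polarization reading; measured by: FP readout, S and P plane fluorescence; read-out basis: percent inhibition from loss of millipolarization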
Starred values were filed as active, the others as inactive; nt = not tested or not shown; + = active, no number.

| molecule | CAL PDZ FP-1 | UUG fidelity | Vif inh | PglD DTNB | ARNT-TACC3 inh | CAL PDZ FP-2 |
| --- | --- | --- | --- | --- | --- | --- |
| C[C@@H]1CN([C@@H](C)CO)C(=O)c2cc(N(C)C)ccc2O[C@@H]1CN(C)S(=O)(=O)c1ccc(Cl)cc1 | nt | -0.7 | nt | 4.0 | nt | nt |
| CCCNC(=O)C[C@H]1CC[C@@H]2[C@H](COc3ccc(NC(=O)c4cccs4)cc3C(=O)N2C)O1 | nt | -3.5 | nt | -0.2 | nt | nt |
| O=[N+]([O-])c1cccc(S(=O)(=O)Nc2ccc3cn[nH]c3c2)c1 | + | -21.0 | -5.2 | 0.6 | -0.7 | -0.2 |
| Cc1ccc(NC(=S)NNC(=O)c2nnn(-c3ccccc3)c2C)cc1 | -2.1 | nt | 0.9 | nt | 59.0* | -1.2 |
| N/N=C(\c1ccccc1)c1cc(Br)ccc1N | 47.4* | -10.1 | -4.3 | 0.7 | 2.2 | nt |
| Cc1nnc(SCc2cccc3ccccc23)n(N)c1=O | -1.0 | -13.4 | 6.6 | -50.5 | -4.4 | -1.1 |
| c1ccc(-n2nnnc2SCc2ccccn2)cc1 | -1.0 | -15.8 | 5.8 | 4.3 | -9.1 | -1.8 |
| Cc1nnc(SCc2ccccn2)n(N)c1=O | -0.9 | nt | 3.2 | nt | active | -2.1 |
| Nn1c(SCc2ccccn2)nncc1=O | -4.0 | nt | -5.3 | nt | 55.6* | -1.7 |
| NCC[C@@H]1CC[C@@H](NC(=O)C2CCC2)[C@@H](CO)O1 | nt | 13.6 | nt | -1.6 | 5.2 | nt |
| CCCN(C)C[C@@H]1OCCCC[C@@H](C)Oc2ccc(NC(=O)CCC(F)(F)F)cc2C(=O)N([C@H](C)CO)C[C@@H]1C | nt | 15.4 | nt | -1.4 | -10.4 | nt |
| COC(=O)c1sc(-c2ccc(Cl)cc2)cc1NC(=O)COCC(=O)O | 47.9* | nt | -3.3 | nt | 1.3 | -3.6 |
| Cc1ccc(NC(=S)N(CCN2CCOCC2)Cc2cc3cc4c(cc3[nH]c2=O)OCO4)cc1 | 51.9* | nt | 15.2 | nt | -1.1 | -0.7 |
| CCOc1ccc(NC(=S)N(CCN2CCOCC2)Cc2cc3cc4c(cc3[nH]c2=O)OCO4)cc1 | 63.3* | nt | 5.3 | nt | -1.7 | -0.3 |
| C[C@@H]1CCCCO[C@@H](CN(C)Cc2ccc(C(F)(F)F)cc2)[C@H](C)CN([C@H](C)CO)C(=O)c2cc(NS(=O)(=O)c3cn(C)cn3)ccc2O1 | nt | -4.6 | nt | -0.9 | 1.7 | nt |
| O=C(O)C[C@H]1CC[C@H](NC(=O)Nc2ccccc2)[C@@H](CO)O1 | nt | -12.7 | nt | 4.0 | -8.0 | nt |
| Nc1ccc(CCn2ccnc2)cc1 | nt | -7.5 | -7.0 | -6.6 | 62.8* | -2.9 |
| c1ccn(CCc2ccncc2)c1 | -7.0 | -29.9 | -11.6 | 3.0 | -7.4 | 0.1 |
| Cc1noc(NS(=O)(=O)c2ccc(NC(=O)CSc3nc4ccccc4[nH]3)cc2)c1C | -2.4 | -2.2 | nt | 5.3 | 4.3 | -0.6 |
| Cc1noc(NS(=O)(=O)c2ccc(NC(=O)CSc3nnc4c(n3)[nH]c3ccccc34)cc2)c1C | -12.0 | nt | -11.5 | nt | 70.6* | -2.3 |
| Cc1cccc(C)c1NC(=O)COc1ccc2c(C)c(Cc3ccccc3)c(=O)oc2c1C | -1.5 | nt | 53.2* | nt | -2.3 | -1.4 |
| Cc1c(Cc2ccccc2)c(=O)oc2c(C)c(OCC(=O)Nc3ccc(C#N)cc3)ccc12 | 0.2 | -3.5 | 9.6 | 3.5 | -5.1 | -0.2 |
| CC(C)NC(=O)N(C)C[C@@H]1Oc2ncc(-c3ccccc3)cc2C(=O)N([C@H](C)CO)C[C@@H]1C | nt | -1.9 | nt | 6.7 | -7.0 | nt |
| COc1ccc(CNC(=O)CN2C(=O)NC(C)(c3cccc4ccccc34)C2=O)cc1OC (stereo not drawn) | 41.3* | 29.9 | 0.4 | -1.0 | 1.1 | -1.5 |
| COc1ccc(C2(C)NC(=O)N(CC(=O)Nc3ccc4ccccc4c3)C2=O)cc1OC (stereo not drawn) | -0.1 | 22.6 | -11.7 | 2.1 | -2.9 | -2.9 |
| COc1cc(C(=O)OCC(=O)Nc2nnc(-c3ccccc3)o2)cc(OC)c1OC | -1.9 | nt | -0.4 | nt | 46.9* | -1.1 |
| O=C(COC(=O)c1cccc(O)c1)Nc1nnc(-c2ccccc2)o1 | -3.4 | -16.0 | 6.0 | -2.6 | 60.0* | -1.3 |
| CCOc1ncccc1C(=O)OCC(=O)Nc1c(C)cccc1C | -5.6 | -17.2 | nt | -1.0 | -1.5 | -0.5 |
| COc1cc(C(=O)NCC(=O)OCC(=O)Nc2nnc(-c3ccccc3)o2)cc(OC)c1OC | -4.0 | -18.8 | 5.5 | -4.2 | nt | -3.4 |
| O=C(COC(=O)c1cccs1)Nc1nnc(-c2ccccc2)o1 | 10.4 | nt | 4.8 | nt | 60.6* | -1.8 |
| CCOc1ncccc1C(=O)OCC(=O)Nc1nnc(-c2ccccc2)o1 | nt | nt | -2.3 | nt | 53.7* | 0.0 |
| COc1ccc(C(=O)OCC(=O)Nc2nnc(-c3ccccc3)o2)cc1 | -0.2 | -33.2 | 0.1 | 1.2 | nt | 0.2 |
| C[C@@H]1CCCCO[C@H](CN(C)Cc2ccccc2)[C@@H](C)CN([C@@H](C)CO)C(=O)c2cc(NC(=O)Cc3ccccc3)ccc2O1 | nt | 16.1 | nt | -5.1 | 0.2 | nt |
| C[C@H]1CN([C@@H](C)CO)C(=O)c2cc(NS(=O)(=O)c3ccccc3)ccc2O[C@H]1CN(C)CC1CC1 | nt | -5.0 | nt | -0.8 | -3.0 | nt |
| C[C@@H]1CN([C@@H](C)CO)C(=O)c2cccc(NC(=O)C3CCCCC3)c2O[C@H]1CN(C)S(=O)(=O)c1ccccc1 | nt | 10.0 | nt | 14.7 | 1.6 | nt |
| C[C@@H]1CCCCO[C@H](CN(C)CC2CC2)[C@@H](C)CN([C@H](C)CO)C(=O)c2cc(NS(=O)(=O)c3ccccc3)ccc2O1 | nt | nt | nt | 9.6 | -4.9 | nt |
| CCOC(=O)C1CCN(Cc2ccccc2C(F)(F)F)CC1 | nt | 1.9 | nt | 5.0 | -30.9 | -0.6 |
| CCOC(=O)C1CCN(Cc2ccc(O)c3ncccc23)CC1 | 0.1 | -23.4 | -3.0 | -3.8 | 69.3* | -0.2 |
| CC1COCC(C)N1C1=C(Cl)C(=O)c2ccccc2C1=O (stereo not drawn) | 0.4 | -16.0 | -6.1 | -3.0 | 30.0* | 1.7 |
| CO[C@H]1CN(C)C(=O)c2cc(C#N)ccc2OC[C@H]2O[C@H](CC[C@@H]2OC)CCN(C)C(=O)[C@H]1C | nt | nt | nt | -4.4 | -3.9 | nt |
| CC1CCCCC12NC(=O)N(CC(=O)OCc1ccccc1F)C2=O (stereo not drawn) | -4.1 | 0.5 | 5.8 | 4.5 | 8.9 | -2.2 |
| COc1ccc(C(C)(C)C)cc1NC(=O)COC(=O)CN1C(=O)NC2(CCCCC2C)C1=O (stereo not drawn) | 52.5* | 10.0 | -8.8 | -2.4 | 1.9 | 0.1 |
| CC1CCCCC12NC(=O)N(CC(=O)OCC(=O)NC(=O)c1ccccc1)C2=O (stereo not drawn) | -8.4 | -1.7 | 22.4 | -3.6 | -12.8 | -3.3 |
| CC1CCCCC12NC(=O)N(CC(=O)OCc1cccc(F)c1)C2=O (stereo not drawn) | 55.9* | -4.4 | -4.5 | 5.3 | -29.5 | -0.4 |
| COc1cccc(NC(=O)CSc2nc3ccsc3c(=O)n2-c2ccc(C(=O)O)cc2)c1 | 43.5* | nt | -0.1 | nt | 0.5 | -0.6 |
| C[C@@H]1CN([C@@H](C)CO)C(=O)c2ccccc2-c2ccccc2CO[C@H]1CN(C)C(=O)Nc1ccc2c(c1)OCO2 | nt | nt | nt | 0.2 | 0.4 | nt |

Reprinted at random: 5 records from the list
| molecule | CAL PDZ FP-1 | UUG fidelity | Vif inh | PglD DTNB | ARNT-TACC3 inh | CAL PDZ FP-2 |
| --- | --- | --- | --- | --- | --- | --- |
| CC1CCCCC12NC(=O)N(CC(=O)OCC(=O)NC(=O)c1ccccc1)C2=O (stereo not drawn) | -8.4 | -1.7 | 22.4 | -3.6 | -12.8 | -3.3 |
| COc1ccc(C(C)(C)C)cc1NC(=O)COC(=O)CN1C(=O)NC2(CCCCC2C)C1=O (stereo not drawn) | 52.5* | 10.0 | -8.8 | -2.4 | 1.9 | 0.1 |
| COc1cccc(NC(=O)CSc2nc3ccsc3c(=O)n2-c2ccc(C(=O)O)cc2)c1 | 43.5* | nt | -0.1 | nt | 0.5 | -0.6 |
| CC1CCCCC12NC(=O)N(CC(=O)OCc1cccc(F)c1)C2=O (stereo not drawn) | 55.9* | -4.4 | -4.5 | 5.3 | -29.5 | -0.4 |
| C[C@@H]1CN([C@@H](C)CO)C(=O)c2ccccc2-c2ccccc2CO[C@H]1CN(C)C(=O)Nc1ccc2c(c1)OCO2 | nt | nt | nt | 0.2 | 0.4 | nt |

Screening data deposited in PubChem BioAssay by Broad Institute.
